One molecule from ChEMBL document CHEMBL5634116, “Strategies for developing retinoic acid receptor alpha-selective antagonists as novel agents for male contraception” (Eur J Med Chem, 2023) can be followed below.

The chains behind the UniProt entries cited, without tags or fusion partners.
UniProt P10826, whole entry: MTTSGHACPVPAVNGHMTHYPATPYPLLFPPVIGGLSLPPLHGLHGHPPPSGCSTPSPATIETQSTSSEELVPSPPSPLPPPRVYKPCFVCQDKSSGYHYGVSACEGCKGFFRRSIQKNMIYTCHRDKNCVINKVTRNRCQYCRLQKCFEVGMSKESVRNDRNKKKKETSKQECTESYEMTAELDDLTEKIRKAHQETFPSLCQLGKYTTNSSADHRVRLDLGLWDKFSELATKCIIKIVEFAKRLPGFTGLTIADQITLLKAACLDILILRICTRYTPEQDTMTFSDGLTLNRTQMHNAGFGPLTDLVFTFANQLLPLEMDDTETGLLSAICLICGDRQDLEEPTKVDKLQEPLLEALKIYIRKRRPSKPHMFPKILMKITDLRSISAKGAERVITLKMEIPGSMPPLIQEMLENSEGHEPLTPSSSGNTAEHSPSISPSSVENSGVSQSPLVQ
UniProt P13631, whole entry: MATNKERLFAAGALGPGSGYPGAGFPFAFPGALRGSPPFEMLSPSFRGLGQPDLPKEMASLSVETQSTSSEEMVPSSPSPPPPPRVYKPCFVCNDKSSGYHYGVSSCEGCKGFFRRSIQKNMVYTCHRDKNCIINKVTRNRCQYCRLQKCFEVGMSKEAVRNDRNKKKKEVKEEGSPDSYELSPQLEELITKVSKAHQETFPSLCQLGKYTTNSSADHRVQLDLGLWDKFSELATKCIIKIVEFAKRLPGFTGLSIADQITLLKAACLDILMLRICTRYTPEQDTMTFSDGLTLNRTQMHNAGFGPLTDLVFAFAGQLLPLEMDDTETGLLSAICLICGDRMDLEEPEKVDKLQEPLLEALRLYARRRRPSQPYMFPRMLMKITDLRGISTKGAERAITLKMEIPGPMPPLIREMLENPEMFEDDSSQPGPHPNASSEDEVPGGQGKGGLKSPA
UniProt P10276, whole entry: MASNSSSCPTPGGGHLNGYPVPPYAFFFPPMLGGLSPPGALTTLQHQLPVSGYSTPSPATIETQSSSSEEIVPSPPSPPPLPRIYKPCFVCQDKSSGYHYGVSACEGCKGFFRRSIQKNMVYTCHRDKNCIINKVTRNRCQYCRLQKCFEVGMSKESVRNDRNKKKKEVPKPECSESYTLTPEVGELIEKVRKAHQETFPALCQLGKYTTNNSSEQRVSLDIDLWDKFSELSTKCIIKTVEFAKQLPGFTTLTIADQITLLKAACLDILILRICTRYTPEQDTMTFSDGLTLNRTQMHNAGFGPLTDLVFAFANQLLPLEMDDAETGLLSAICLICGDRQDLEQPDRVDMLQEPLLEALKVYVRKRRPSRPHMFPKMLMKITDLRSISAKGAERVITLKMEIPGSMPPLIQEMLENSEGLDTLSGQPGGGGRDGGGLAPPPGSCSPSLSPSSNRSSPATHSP

Series [1] deals with Retinoic acid receptor beta (Homo sapiens, UniProt P10826). In words: Agonist activity at recombinant human RAR-beta expressed in mammalian cells by luciferase reporter gene based transactivation assay relative to control. Type of series: cell-based. The settings on record: filed as agonist. In a few lines: (§1)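 Transactivation in proprietary reporter cells expressing recombinant human RAR subtype with RARE-linked beetle luciferase. Compounds in DMSO (final 0.4%), 8-point dose response in triplicate; cells added, incubated overnight at 37 °C, 5% CO2, then luciferase reagent 30 min r.t., luminescence read.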

The nature of another series: in vitro. The settings on record: human, Caco-2.
In series [2] the target is Retinoic acid receptor gamma (Homo sapiens, UniProt P13631). Put plainly: Agonist activity at recombinant human RAR-gamma expressed in mammalian cells by luciferase reporter gene based transactivation assay relative to control. The class given is cell-based. In a few lines:
as §1
On the technique in general: Reporter assays use an easily measured gene product as a stand-in for the process of interest.

Series [3] concerns the target Retinoic acid receptor alpha (Homo sapiens, UniProt P10276). Put plainly: Agonist activity at recombinant human RAR-alpha expressed in mammalian cells by luciferase reporter gene based transactivation assay relative to control. Type of series: cell-based. In outline:
as §1

`Cc1ccc(C2=CC(C)(C)Oc3ccc(C(=O)Nc4ccc(C(=O)O)cc4)cc32)cc1`: the maximal effect (Emax) in series [1] amounted to 65%; in series [2] it was 22%; in series [3], 0%. This molecule also had a recovery at 10 µM in the series “in vitro” of 98%.

A word on the Emax: it is the greatest response seen or fitted, relative to the assay's reference.
